AlphaSeq binding of Ab-14 light chain variants to a spike HR2 peptide

Target: peptide PDVDLGDISGINAS, taken from heptad repeat 2 (HR2) of SARS-CoV-2 spike.

Each scFv is VH, a 15-residue (Gly4Ser)3 linker, VL, as in the parent Ab-14, and differs from it in the CDRs of the light chain only.
VH: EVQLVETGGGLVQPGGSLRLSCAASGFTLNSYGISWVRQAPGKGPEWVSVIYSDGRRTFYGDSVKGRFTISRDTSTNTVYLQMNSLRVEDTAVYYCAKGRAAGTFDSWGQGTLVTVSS
VL: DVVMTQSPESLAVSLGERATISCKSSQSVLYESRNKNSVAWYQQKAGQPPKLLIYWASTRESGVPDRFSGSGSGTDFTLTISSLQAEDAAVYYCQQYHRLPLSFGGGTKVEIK

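The starting antibody came from a phage panning campaign against this peptide. Designed CDR sequences, proposed from the first random library and measured here. Group labels follow the data file (En: ensemble of fine-tuned language models; GP: Gaussian process model; HC: hill climbing; Gen: genetic algorithm; Gibbs: Gibbs sampling; a sequence that several methods proposed may carry one label only). The scFvs were displayed on barcoded MATa yeast, the peptide on MATalpha yeast. The frequency of each diploid, read from paired DNA barcodes, reflects how well the two displayed proteins bind. Read counts were normalised to the haploid input and turned into Kd by a linear fit to BCL2-family pairs of known affinity, for each replicate. Each pool was mated in six replicate cultures.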

Each variant is given by its three light chain CDRs, as the data file delimits them; those of the parent are KSSQSVLYESRNKNSVA, WASTRES, QQYHRLPLS. This list holds designs with more than six substitutions. Kd is apparent (estimated from mating counts) and averaged on the log scale over replicates with a signal. Smaller is tighter. "no signal" means that the variant was in the library but no mating with the target was seen in any replicate; the authors take this as a sign of poor binding, and no number exists. Background: pairings of all light chain designs with three empty control strains gave a value in 4% of cases (median 430 nM, 5th percentile 38 nM). Values in that range, when seen in few replicates, are hard to tell from nonspecific mating. For each scFv, signals with the empty controls are counted beside the result. The parent sequence was in this pool as ten entries: three were never detected, three once, and four in most replicates, with averages from 2.2 nM to 240 nM. The authors' rule: three or more of the six replicates give a measured affinity, fewer mean a poor binder. Values of this round are not directly comparable with the first-round values of the same sequences.

- KIAATVLYESGNANSVA / QNSTREQ / QQYHRLPLS [En_HC]: 54 nM (6 of 6 replicates; controls 0 of 18)
- KLLQVTENMQLNRNSVA / HMSTRED / QQYHRLPLS [En_HC]: 22 nM (5 of 6 replicates; controls 0 of 18)
- SIYDATTMESRNKNPIA / DVSTRPS / QQYHRLPLS [En_HC]: 2.5 nM (6 of 6 replicates; controls 0 of 18)
- MFDQQTMNENDKNNSVA / EVNHLYN / QQYAQLPLI [En_Gibbs]: 760 nM (4 of 6 replicates; controls 1 of 18)
- KLYEMLAVTMSHIRNVA / DNSTRES / QQYNRLPLS [En_Gen]: 420 nM (2 of 6 replicates; controls 0 of 18)
- KIGLVTNGIQFSTNSVA / EQSTREN / QQYDRLPLS [En_HC]: 10 nM (6 of 6 replicates; controls 0 of 18)
- HISMMVGTKGYNKQSVA / NAETRED / QQYHRLPLS [En_HC]: 1.1 nM (6 of 6 replicates; controls 1 of 18)
- KIHQSVLYEDRNINSVA / SASQRYS / QQYHRLPLS [GP_Gibbs]: 900 pM (6 of 6 replicates; controls 1 of 18)
- NMEGVEGEIAQHGNSVA / GVDLREA / QQYARLPLH [En_Gibbs]: 6.4 nM (6 of 6 replicates; controls 2 of 18)
- KLSGSMLYQSRNKNAVA / EASQREQ / QQYHRLPLS [GP_Gibbs]: 340 pM (6 of 6 replicates; controls 1 of 18)
- KFGQMVLTGTYVKNSVA / QSSTREN / QQYHRLPLS [En_HC]: 40 nM (5 of 6 replicates; controls 0 of 18)
- GVDHTMESGKQAPNSIA / NAEQLQI / QQYQRLPLS [En_Gibbs]: 6.9 nM (6 of 6 replicates; controls 0 of 18)
- MMSQVWGLGQRQRNNVA / QTSTREP / QQYDRLPLI [En_Gen]: 3.2 nM (6 of 6 replicates; controls 2 of 18)
- MISQLWNMGTFAINSVA / QASIRNM / QQYDRLPLA [En_Gen]: 43 nM (4 of 6 replicates; controls 1 of 18)
- TLVGNIQGGGWAKKNVA / DEVMRVN / QQYYRLPLS [En_Gibbs]: 2.6 nM (6 of 6 replicates; controls 0 of 18)
- TITQMMLMTSHNMNSVA / HASTRED / QQYHRLPLI [En_HC]: 19 nM (6 of 6 replicates; controls 2 of 18)
- TLVQSVMGGSRTKNSVA / NAEMRYD / QHYHRLPLS [En_HC]: 1.3 nM (6 of 6 replicates; controls 0 of 18)
- QIEILGEEVTQHYSNVA / EQHVTDM / QQYFRLPLS [En_Gibbs]: no signal (0 of 6 replicates; controls 0 of 18)
- QITQLVGYGQRNKNSVA / QMSTREN / QQYDRLPLS [En_HC]: 2.2 nM (6 of 6 replicates; controls 0 of 18)
- KLSQSVDYEERNKAQVA / DASTRMS / QQYHRLPLS [GP_Gibbs]: 800 pM (6 of 6 replicates; controls 0 of 18)
- KQQQSELQSSRNKNSVA / NASERES / QQYHRLPLS [GP_Gibbs]: 5.3 nM (6 of 6 replicates; controls 0 of 18)
- HVMHEQLDYKNRENNIA / HESMRLV / QQYSQLPIT [En_Gibbs]: 16 nM (6 of 6 replicates; controls 1 of 18)
- KLVQFMNRGTHHTSNIA / DAQDRID / QQYARLPLA [En_Gen]: 17 nM (6 of 6 replicates; controls 1 of 18)
- KLQQSELMEERNSNSVA / HASLRES / QQYHRLPLS [GP_Gibbs]: 730 pM (6 of 6 replicates; controls 0 of 18)
- KLTWSQYNWTSHYQAVA / EQNMRAT / QSYYRLPFS [En_Gibbs]: 560 nM (6 of 6 replicates; controls 0 of 18)
- KMTEQLLNGEREPSNIA / AQDIGSD / QQYHHLPLI [En_Gibbs]: 23 nM (6 of 6 replicates; controls 2 of 18)
- FLQAFGEESNRNSKNIA / SKETRQV / QQYMRLPLS [En_Gibbs]: 6.7 nM (5 of 6 replicates; controls 0 of 18)
- TISQLMNMGQFAINSVA / QAEIRNA / QQYDRLPLI [En_Gen]: 55 nM (6 of 6 replicates; controls 0 of 18)
- TLSHSTDLETVHKNSIA / DLMTRES / QQYDRLPLS [En_HC]: 4.1 nM (6 of 6 replicates; controls 0 of 18)
- ILYESVGTLSRNVNSVA / DNSTRES / QQYDRLPLS [En_HC]: 250 nM (2 of 6 replicates; controls 2 of 18)
- KLQQSVGYESRLANSVA / NASTRLE / QQYHRLPLS [GP_Gibbs]: 1.2 nM (6 of 6 replicates; controls 0 of 18)
- KVDQWEQYGSRNKNSVA / SASQRSS / QQYHRLPLS [GP_Gibbs]: 6.2 nM (6 of 6 replicates; controls 1 of 18)
- KVMQSMWYESRNKNSVA / HASMREQ / QQYHRLPLQ [GP_Gibbs]: 1.7 nM (6 of 6 replicates; controls 0 of 18)
- KLSIMYQHTSRNKNNIA / ERSTREM / QQYHHLPLS [En_HC]: 2.4 nM (6 of 6 replicates; controls 0 of 18)
- HFQQSVPYESRNKNSVA / NASLRFS / QQYHRLPLS [GP_Gibbs]: 3.0 nM (6 of 6 replicates; controls 2 of 18)
- KISMLTRFQQNAKNNIA / EMNRREA / QQYHRLPLS [En_HC]: 1.8 nM (3 of 6 replicates; controls 0 of 18)
- KLSQFYRMESRNKNSVA / DNSTRED / QDYDRLPLS [En_HC]: 340 nM (3 of 6 replicates; controls 2 of 18)
- SLTAHVEEKKGAESSVA / EAVMLES / QQYHQLPLM [En_Gibbs]: 11 nM (6 of 6 replicates; controls 0 of 18)

The first 5 entries again:

- KIAATVLYESGNANSVA / QNSTREQ / QQYHRLPLS [En_HC] = 54 nM (6 of 6 replicates; controls 0 of 18)
- KLLQVTENMQLNRNSVA / HMSTRED / QQYHRLPLS [En_HC] = 22 nM (5 of 6 replicates; controls 0 of 18)
- SIYDATTMESRNKNPIA / DVSTRPS / QQYHRLPLS [En_HC] = 2.5 nM (6 of 6 replicates; controls 0 of 18)
- MFDQQTMNENDKNNSVA / EVNHLYN / QQYAQLPLI [En_Gibbs] = 760 nM (4 of 6 replicates; controls 1 of 18)
- KLYEMLAVTMSHIRNVA / DNSTRES / QQYNRLPLS [En_Gen] = 420 nM (2 of 6 replicates; controls 0 of 18)

Source: Li et al. 2023 (doi:10.1038/s41467-023-39022-2), MIT Lincoln Laboratory and A-Alpha Bio; data file from the FLAb repository.